Measurements: publication PMC3210965 (Chemical research in toxicology, 2011)

Experiments:
[1] = cited from earlier work
[2] = system: HeLa cells; assay: Cell viability MTS assay; assay type: cell-based, human
[3] = target: T1, rat TrxR (Rattus norvegicus, UniProt O89049)
T1 sequence (O89049 1-499): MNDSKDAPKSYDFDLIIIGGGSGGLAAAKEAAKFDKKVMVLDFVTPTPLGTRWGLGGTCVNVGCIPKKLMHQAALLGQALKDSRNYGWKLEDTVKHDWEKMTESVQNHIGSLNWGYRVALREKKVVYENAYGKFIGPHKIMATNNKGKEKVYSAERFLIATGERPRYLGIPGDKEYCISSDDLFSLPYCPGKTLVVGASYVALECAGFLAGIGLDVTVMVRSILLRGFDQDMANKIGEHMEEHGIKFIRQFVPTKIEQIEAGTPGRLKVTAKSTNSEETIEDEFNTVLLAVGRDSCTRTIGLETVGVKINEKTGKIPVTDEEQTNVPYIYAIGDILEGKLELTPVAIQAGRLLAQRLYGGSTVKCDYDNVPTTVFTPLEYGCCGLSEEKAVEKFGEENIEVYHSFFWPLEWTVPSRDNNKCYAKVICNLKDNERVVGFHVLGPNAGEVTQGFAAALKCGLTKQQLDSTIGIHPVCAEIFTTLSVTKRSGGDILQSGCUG

For `CC1=C2C(=C[C@@](C)(CO)[C@@H]2O)C(=O)[C@](C)(O)C12CC2` [illudin S], the “toxicity in vitro relative to AF” value [1] is given as “around 30 fold”, the “toxicity relative to AF” value ([2]; concentration range tested) is given as “at least 100 fold” and the “inhibition of cell viability” value ([2]; concentrations higher than 1 μM) is given as “more than 40%”. The “IC50 toward TrxR relative to that of the AFs” value [3] was 100 fold.
